We go through 1 protein from article PMC3017799 (Molecular Vision, 2011).

This data set concerns the molecule itself. Description: SEC; 100 ug protein at 1 mg/ml injected into a TSK-G5000PWXL column; 50 mM phosphate, 150 mM NaCl, pH 7.2. Background: In gel filtration, larger molecules generally elute earlier.

B1: wild-type αA-crystallin (natural protein, human, UniProt P02489 1-173, looked up)
chain: MDVTIQHPWFKRTLGPFYPSRLFDQFFGEGLFEYDLLPFLSSTISPYYRQSLFRTVLDSGISEVRSDRDKFVIFLDVKHFSPEDLTVKVQDDFVEIHGKHNERQDDHGYISREFHRRYRLPSNVDQSALSCSLSADGMLTFCGPKIQTGLDATHAERAIPVSREEKPTSAPSS
notes: human αA-crystallin, cDNA cloned into pET-23d(+); the protein was purified by gel filtration and ion exchange; It forms polydisperse oligomers and no subunit count is printed; also called wt αA-crystallin; source: E. coli BL21(DE3) pLysS, purified (Superdex 200 gel filtration, 6 M urea, anion exchange)
As for B1, the binding result is “binds”.
